Laboratory results from ChEMBL document CHEMBL3864161, “5-Aminopyrazole-4-carboxamide analogues are selective inhibitors of Plasmodium falciparum microgametocyte exflagellation and potential malaria transmission blocking agents” (Bioorg Med Chem Lett, 2016).
pEC50, pIC50: −log10 of the molar value.

Sequences of proteins named here, by UniProt entry; tags and fusion partners are left off. A change or cut given only in a name is not applied to a line headed by its entry.
UniProt Q12809: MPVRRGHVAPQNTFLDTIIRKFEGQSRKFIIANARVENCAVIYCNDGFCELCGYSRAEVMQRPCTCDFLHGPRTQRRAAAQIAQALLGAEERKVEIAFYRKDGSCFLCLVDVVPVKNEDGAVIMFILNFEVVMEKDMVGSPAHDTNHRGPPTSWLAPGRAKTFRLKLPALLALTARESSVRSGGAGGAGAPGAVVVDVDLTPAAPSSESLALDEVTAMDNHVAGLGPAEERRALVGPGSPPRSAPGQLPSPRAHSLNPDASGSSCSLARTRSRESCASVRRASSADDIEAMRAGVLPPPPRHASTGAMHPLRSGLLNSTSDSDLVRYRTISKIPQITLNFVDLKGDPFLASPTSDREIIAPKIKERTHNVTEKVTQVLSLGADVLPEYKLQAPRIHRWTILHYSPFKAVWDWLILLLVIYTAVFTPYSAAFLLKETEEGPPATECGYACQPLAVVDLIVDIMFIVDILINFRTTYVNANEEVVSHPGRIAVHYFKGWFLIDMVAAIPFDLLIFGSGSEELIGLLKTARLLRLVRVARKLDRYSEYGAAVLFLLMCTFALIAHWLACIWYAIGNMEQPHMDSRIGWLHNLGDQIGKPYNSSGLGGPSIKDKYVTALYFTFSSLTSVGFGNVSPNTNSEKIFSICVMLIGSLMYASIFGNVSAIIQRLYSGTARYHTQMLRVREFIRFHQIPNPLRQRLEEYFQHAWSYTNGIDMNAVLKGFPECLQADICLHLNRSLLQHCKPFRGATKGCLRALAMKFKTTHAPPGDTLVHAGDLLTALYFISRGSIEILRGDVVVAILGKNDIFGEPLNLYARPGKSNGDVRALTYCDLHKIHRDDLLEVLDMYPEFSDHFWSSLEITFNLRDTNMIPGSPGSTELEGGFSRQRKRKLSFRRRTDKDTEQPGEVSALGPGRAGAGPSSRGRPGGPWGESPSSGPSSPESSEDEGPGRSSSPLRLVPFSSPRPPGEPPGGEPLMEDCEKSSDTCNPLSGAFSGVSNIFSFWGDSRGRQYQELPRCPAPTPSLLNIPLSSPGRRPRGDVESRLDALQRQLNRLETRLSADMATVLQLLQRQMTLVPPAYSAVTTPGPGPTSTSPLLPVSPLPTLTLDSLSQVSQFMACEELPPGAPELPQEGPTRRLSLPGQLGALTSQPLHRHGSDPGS

Key:
[1] = target: Voltage-gated inwardly rectifying potassium channel KCNH2 (Homo sapiens, UniProt Q12809)
Plasmodium falciparum [2] = test: microbe, parasite or virus in culture; conditions: read-out: INH
Plasmodium falciparum [3] = test: Inhibition of male gametocytes exflagellation of Plasmodium falciparum at 1 uM relative to control; type: functional
[4] = target: T1, Calmodulin-domain protein kinase 1 (Toxoplasma gondii, UniProt Q9BJF5)
T1 sequence (Q9BJF5 whole entry): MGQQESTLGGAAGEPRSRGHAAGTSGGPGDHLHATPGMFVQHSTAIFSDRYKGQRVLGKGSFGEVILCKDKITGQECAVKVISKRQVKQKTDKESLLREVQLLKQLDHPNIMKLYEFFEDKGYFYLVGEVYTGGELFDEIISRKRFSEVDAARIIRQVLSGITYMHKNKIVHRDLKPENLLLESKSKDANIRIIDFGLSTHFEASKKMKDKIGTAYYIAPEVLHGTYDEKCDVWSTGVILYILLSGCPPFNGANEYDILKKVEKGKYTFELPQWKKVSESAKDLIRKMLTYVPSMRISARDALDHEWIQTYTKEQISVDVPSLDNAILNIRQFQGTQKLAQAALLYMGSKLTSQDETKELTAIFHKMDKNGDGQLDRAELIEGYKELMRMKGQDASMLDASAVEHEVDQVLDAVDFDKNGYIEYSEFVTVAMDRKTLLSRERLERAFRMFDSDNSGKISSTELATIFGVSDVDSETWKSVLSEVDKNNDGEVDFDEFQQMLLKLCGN

Compound	pEC50 [1]	inhibition at 0.1 µM (Plasmodium falciparum [2])	inhibition at 1 µM (Plasmodium falciparum [3])	pIC50 [4]
COc1ccc2cc(-c3nn(C(C)(C)C)c(N)c3C(N)=O)cnc2c1	< 4.52	73%	–	–
CCOc1ccc2cc(-c3nn(C(C)(C)C)c(N)c3C(N)=O)cnc2c1	< 4.52	89%	87%	–
CCOc1ccc2cc(-c3nn(C4CCCCC4)c(N)c3C(N)=O)ccc2n1	4.85	–	–	–
CCOc1ccc2cc(-c3nn(C4CCCCC4)c(N)c3C(N)=O)cnc2c1	–	–	–	7.92
CCOc1ccc2cc(-c3nn(C(C)C)c(N)c3C(N)=O)cnc2c1	4.73	80%	–	–
CCOc1ccc2cc(-c3nn(CC(C)(C)CO)c(N)c3C(N)=O)cnc2c1	< 4.52	–	–	–
